Assay [1] deals with S. aureus NorA-, wild type, and NorA+. In words: Photodynamic inactivation (PDI), light-dose dependent phototoxicity. The note with it: S. aureus NorA strains; 10 μM. In kind it is cell-based, Staphylococcus aureus. On the procedure:
A polylysine-chlorine6 conjugate (pL-ce6), and Rose Bengal (RB) (Sigma-Aldrich) were used as non-phenothiazinium-based PS (FIG. 3). Stock solutions were prepared in water at a concentration of 2-mM and stored for a maximum of 2 weeks at 4° C. in the dark before use. Spectra of stock solutions diluted 140-280 fold in methanol were recorded on an UV-visible spectroscopy system (Waldbronn, Germany). A non-coherent light source with interchangeable fiber bundles (LC122, LumaCare, London, UK) was employed. Thirty-nm band pass filters at ranges 540±15 nm for RB, 635±15 nm for TBO, and DMMB, and 660±15 nm for MB and pLce6 were used. The total power output provided out of the fiber bundle ranged from 300-700 mW. The spot was arranged to give an irradiance of 100 mW/cm^2.
Bacterial suspensions in PBS (initial concentration 10^8 cells mL^−1) were incubated with PS in the dark at room temperature for 30 minutes at concentrations varying from 1-μM to 300-μM. The cell suspensions were centrifuged at 12000 rpm and then washed twice with sterile PBS. […] This allowed a maximum of seven logs of killing to be measured. […]
The three isogenic strains of S. aureus were incubated with 10 μM MB for 30 minutes and then washed free of unbound dye by centrifugation and resuspension in PBS and illuminated with 100 mWcm^−2 660-nm light, and the survival fractions determined as described above. […]

Assay [2] concerns P. aeruginosa MexAB-, wild type and MexAB+. The format is cell-based, Pseudomonas aeruginosa. Conditions: MexAB knock-out, 300 μM.

Read-outs that look alike come from different tables or passages of the source.

This is an account of results in US20130115133A1, “INACTIVATION OF MICROORGANISMS WITH […] […] PHENOTHIAZINIUMS” (priority 2004, published 2013).

Turning to `CN(C)c1ccc2nc3ccc(=[N+](C)C)cc-3sc2c1` [MB, methylene blue], the “overall order of efficiency of killing” value in assay [1] was “DMMB>TBO>MB”. Also, the “logs more killing (than wild-type)” value in assay [2] (at 5 J/cm2) and in assay [2] (at 10 J/cm2) was “two” in each case. For the same compound, the killing result in assay [2] (at 15 J/cm2) is listed as “completely eliminated”.
